# Experimental properties from OPERA 2.9

Source: data files of OPERA 2.9 (Mansouri et al.), github.com/kmansouri/OPERA.

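The numbers are reported measurements, compiled and curated for the OPERA QSAR suite. A listed value is a point estimate from one report or more. Method and conditions are not stated for these values. Where a salt, mixture or single isomer is drawn, the source does not say that exactly this form was tested. Some upstream entries may be estimates or bounds without being marked so.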

Melting points are in °C. The boiling point refers to atmospheric pressure (760 mmHg), by the definition of the set. The octanol-water partition coefficient is given as log10; larger values mean a more lipophilic compound. Water solubility is log10 of mol/L, nominally at 25 °C; higher is more soluble. Vapor pressures (log10 mmHg) refer to near room temperature, 15 to 30 °C; higher is more volatile. The unbound fraction in human plasma runs from 0 (all bound) to 1 (all free). Intrinsic clearance (human, µL/min per 10^6 hepatocytes): higher is faster turnover, and 0 stands for none detected. "–" marks a cell with nothing listed here.

structure (SMILES),MP (°C),bp (°C),logP (octanol/water),log solubility (log10 mol/L),log vapor pressure (log10 mmHg),fraction unbound,Clint (µL/min/10^6 cells)
O=C1CCCCCCCCCOCCCCCO1,34,–,–,-3.884,-3.921,–,–
Nc1ccc(S(N)(=O)=O)cn1,172,–,–,-1.217,–,–,–
CCCCc1ccc(-c2ccc(-c3ccc(CC)cc3)cc2F)cc1,69.2,440,–,-7.92,-7.573,–,–
CC(O)CN(CC(C)O)C(=O)COC(=O)c1ccccc1 (centres undefined),106,–,–,-1.179,–,–,–
C=C[Si](C)(N(CC)C(C)=O)N(CC)C(C)=O,–,198,–,–,0.17,–,–
CCCCCCCCCCCCN1CCCCCC1=O,–,–,–,–,–,0.00275,9.8
CN1CCC(OC(c2ccccc2)c2ccccc2)CC1,–,–,3.7,-4.175,–,–,–
CC(=O)CC(C)(C)c1ccccc1,–,–,2.77,-2.338,-1.736,–,–
CC(C)(C)C(=O)C=Cc1ccc2c(c1)OCO2,–,332,3.65,-4.588,–,–,–
N#CSCSc1nc2ccccc2s1,-10,191,–,–,-5.046,–,–
C=CCN(C)CC=C,–,–,1.28,–,1.283,–,–
Clc1cc(Oc2cc(Cl)c(Cl)c(Cl)c2Cl)c(Cl)c(Cl)c1Cl,126,–,–,-10.13,–,–,–
CC(C)CCCCCCOC(=O)c1ccc(C(=O)OCCCCCCC(C)C)cc1,–,359,–,-7.054,-8.648,–,–
Nc1ccc(N2CCOCC2=O)cc1,166.7,–,-0.8,–,-8.339,–,–
COC(=O)N1c2ccccc2C=C(OC)c2ccccc21,147,–,2.8,-4.733,–,–,–
CCC(C)(O)CCCC(C)C (centres undefined),–,–,3.6,-2.694,–,–,–
COC(=O)c1ccc(I)cc1S(=O)(=O)[N-]C(=O)Nc1nc(C)nc(OC)n1.[Na+],150,–,–,–,-10.3,–,–
CCOC(=O)CNC(=O)COC(=O)c1ccccc1OC(C)=O,68.5,–,0.99,-1.874,–,–,–
O=S(=O)(O)c1ccc(O)cc1,–,166.7,–,–,-6.478,–,–
CC1(C)S[C@@H]2[C@H](N3C(=O)C(c4ccccc4)NC3(C)C)C(=O)N2[C@H]1C(=O)O (some centres not stated),–,–,1.3,-2.881,–,–,–
OCCN1CCN(CCCN2c3ccccc3Sc3ccc(C(F)(F)F)cc32)CC1,–,–,–,-4.15,–,–,7.399
C=C(C)C(=O)OCCOCCOc1ccc(C(=O)c2ccccc2)cc1,-48,–,–,-4.392,-5.317,–,–
CCC(C)(CCCC(C)C)OC(C)=O (centres undefined),–,–,5.6,-5.103,-0.763,–,–
COCCCOc1cc(C[C@@H](C[C@H](N=[N+]=[N-])[C@@H]2C[C@@H](C(C)C)C(=O)O2)C(C)C)ccc1OC,60.6,–,–,-5.851,-10.76,–,–

A selection of 4 entries from above:

structure (SMILES)	MP (°C)	bp (°C)	logP (octanol/water)	log solubility (log10 mol/L)	log vapor pressure (log10 mmHg)	fraction unbound	Clint (µL/min/10^6 cells)
CCCCCCCCCCCCN1CCCCCC1=O	–	–	–	–	–	0.00275	9.8
CC(C)CCCCCCOC(=O)c1ccc(C(=O)OCCCCCCC(C)C)cc1	–	359	–	-7.054	-8.648	–	–
C=CCN(C)CC=C	–	–	1.28	–	1.283	–	–
CCC(C)(CCCC(C)C)OC(C)=O (centres undefined)	–	–	5.6	-5.103	-0.763	–	–